Test results published in patent US11633341B2, “Dental varnishes that release specifically targeted antimicrobial peptides and/or fluoride” (C3 Jian, LLC, priority 2017, dated 2023).

tested on: S. mutans; assay: Anti-biofilm activity level (% viability remaining for S. mutans); type: cell-based

Row | Substance | % viability remaining [%]
1 | TFFRLNFRSFTQALGK [N7-F6/N21424] | 65
2 | TFFRLFNRSFTQALGS [K16-S16 C16G2] | 59
3 | TFFRLFFRSNTQALGK*** [N7-F10/N21432] | 76
